Reference: patent publication US20250215014A1, “KINASE INHIBITORS, PREPARATION METHODS AND USES THEREOF” (InventisBio Co., Ltd., priority 2022, published 2025)

Sequences of proteins named here, by UniProt entry; tags and fusion partners are left off.
UniProt Q13574, whole entry: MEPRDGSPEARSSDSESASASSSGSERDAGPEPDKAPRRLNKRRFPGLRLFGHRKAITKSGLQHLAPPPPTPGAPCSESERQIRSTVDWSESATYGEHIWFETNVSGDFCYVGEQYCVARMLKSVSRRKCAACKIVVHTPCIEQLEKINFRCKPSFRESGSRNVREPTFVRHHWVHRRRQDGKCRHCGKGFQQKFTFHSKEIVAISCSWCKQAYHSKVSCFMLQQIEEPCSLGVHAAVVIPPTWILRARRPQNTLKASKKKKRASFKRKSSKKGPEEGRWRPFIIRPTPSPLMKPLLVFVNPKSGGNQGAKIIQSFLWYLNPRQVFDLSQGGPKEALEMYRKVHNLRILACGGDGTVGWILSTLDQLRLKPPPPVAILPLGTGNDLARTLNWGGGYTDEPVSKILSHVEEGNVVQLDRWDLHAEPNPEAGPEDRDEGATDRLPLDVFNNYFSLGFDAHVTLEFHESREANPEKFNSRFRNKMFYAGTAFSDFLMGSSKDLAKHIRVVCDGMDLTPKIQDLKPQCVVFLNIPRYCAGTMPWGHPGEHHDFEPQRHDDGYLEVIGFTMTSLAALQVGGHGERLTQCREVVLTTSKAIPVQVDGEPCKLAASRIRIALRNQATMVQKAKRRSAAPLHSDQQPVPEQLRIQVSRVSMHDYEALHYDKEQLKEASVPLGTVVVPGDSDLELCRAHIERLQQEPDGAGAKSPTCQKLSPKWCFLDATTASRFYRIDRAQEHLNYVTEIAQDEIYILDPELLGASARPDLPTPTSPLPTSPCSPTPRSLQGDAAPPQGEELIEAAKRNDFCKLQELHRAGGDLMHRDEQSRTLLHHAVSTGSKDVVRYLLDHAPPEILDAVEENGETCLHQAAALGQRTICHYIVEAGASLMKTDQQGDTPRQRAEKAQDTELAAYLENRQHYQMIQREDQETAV
UniProt P23743, whole entry: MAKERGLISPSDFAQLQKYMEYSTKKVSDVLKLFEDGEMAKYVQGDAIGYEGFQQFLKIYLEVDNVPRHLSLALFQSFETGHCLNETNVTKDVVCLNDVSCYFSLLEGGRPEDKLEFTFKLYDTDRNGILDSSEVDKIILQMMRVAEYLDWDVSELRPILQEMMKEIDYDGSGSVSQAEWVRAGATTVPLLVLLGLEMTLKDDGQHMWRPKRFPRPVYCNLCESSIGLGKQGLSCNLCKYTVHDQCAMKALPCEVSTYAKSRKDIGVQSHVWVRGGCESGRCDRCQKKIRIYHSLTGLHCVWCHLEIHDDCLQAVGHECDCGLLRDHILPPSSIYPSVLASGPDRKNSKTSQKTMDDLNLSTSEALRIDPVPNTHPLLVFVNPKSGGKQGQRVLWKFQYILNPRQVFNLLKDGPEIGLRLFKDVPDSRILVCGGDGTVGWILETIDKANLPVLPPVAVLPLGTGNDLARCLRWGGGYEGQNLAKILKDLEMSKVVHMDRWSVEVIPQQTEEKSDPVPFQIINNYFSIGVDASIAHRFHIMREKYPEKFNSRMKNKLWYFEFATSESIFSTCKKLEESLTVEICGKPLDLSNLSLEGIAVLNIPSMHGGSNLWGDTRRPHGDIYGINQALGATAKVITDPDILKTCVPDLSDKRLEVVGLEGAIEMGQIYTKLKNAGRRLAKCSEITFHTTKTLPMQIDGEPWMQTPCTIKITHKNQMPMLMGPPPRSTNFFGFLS

Legend:
[1] = target: DGKz (Homo sapiens (Human), UniProt Q13574); assay: DGK ADP-Glo Kinase Assay (DGKz); type: biochemical; conditions: read-out: DGKz kinase IC50, 5 nM DGKz, 15 uM ATP
[2] = target: DGKa (Homo sapiens (Human), UniProt P23743); assay: DGK ADP-Glo Kinase Assay (DGKa); type: biochemical; conditions: read-out: DGKa kinase IC50, 10 nM DGKa, 15 uM ATP

`CC[C@@H]1CN2c3c(c(=O)n(C)c4ccc(C#N)nc34)OC[C@@H]2CN1[C@@H](CC)c1ccc(C(F)(F)F)cc1` [Compound 121] was tested, and the pIC50 [1] was over 7.00 and the pIC50 [2] was over 7.00.

pIC50: −log10 of the molar value.
